≈ marks a conversion by molar mass, not a printed value.
How the values were obtained:
[1] = Circular dichroism spectroscopy, percent alpha-helicity; format: physicochemical; conditions: 100 μg/mL peptide
Description: Circular dichroism (CD) analysis of the peptides was performed using a Jasco J-1500 spectropolarimeter. 100 μg/mL of peptide was used in each experiment. Samples were allowed to equilibrate for 5 min prior to data collection at 25° C. in a 1 mm path length cuvette. Spectra were collected from 190 to 260 nm with at 20 nm/min, a data integration time of 4 seconds and a 1 nm bandwidth. Data shown represents the average of four spectra. The peptides were analyzed in 10 mM sodium phosphate buffer (6.12 mM sodium monohydrogen phosphate heptahydrate; 3.92 mM monosodium phosphate anhydrous; pH 7.4), 50% (v/v) trifluoroethanol (TFE) in phosphate buffer, or 60 mM sodium dodecyl sulfate (SDS) in phosphate buffer. Percent contribution to secondary structure was measured using methods described in Raussens, V. et al. (Analytical Biochemistry, 319(1):114-21 (2003)).
The secondary structures of many CAMPs are disordered in the absence of anionic membranes or micelles, but adopt more defined secondary structures in their presence. To detect and measure any changes that the DRGN peptides may undergo based on environment, we studied their structural properties in 10 mM phosphate buffer as a negative control, 60 mM SDS in 10 mM phosphate buffer and 50% 2,2,2-Trifluoroethanol (TFE) in 10 mM phosphate buffer. Phosphate buffer without SDS or TFE provided an environment for studying the conformational properties of the peptides structure in the absence a micelle or membrane. Sodium dodecyl sulfate is an anionic surfactant that can form micelles in aqueous buffers mimicking bacterial membranes and simulating the effects an anionic membrane can have on the conformations of antimicrobial peptides. Addition of trifluoroethanol to aqueous buffer promotes increased structure, usually helicity, in peptides with suitable sequences.

[2] = tested on: carbapenem-resistant K. pneumoniae strain (ATCC BAA-1705); format: cell-based, Klebsiella pneumoniae; conditions: CLSI protocol in CA-MHB
Description: Klebsiella pneumoniae ATCC BAA-1705 was purchased from the American Type Culture Collection (Manassas, VA) and grown in Cation-Adjusted Mueller Hinton Broth. Bacteria were aliquoted and frozen at −80° C. with 20% glycerol and enumerated via serial dilution and plating prior to experimentation.
The minimum inhibitory concentration (MIC) of the peptides was determined according to Clinical & Laboratory Standards Institute (CLSJ) guidelines. Bacteria were grown overnight on Cation-adjusted Mueller Hinton Agar (BD 211438, CAMHA) at 37° C. Assays were performed in Cation-adjusted Mueller Hinton Broth (BD 212322, CAMHB) in polypropylene 96 well plates (Corning 3879). Each experiment was performed with three replicates at least three times.

CC[C@H](C)[C@H](NC(=O)[C@@H](NC(=O)[C@H](CCCCN)NC(=O)[C@@H]1CCCN1C(=O)[C@H](CCCCN)NC(=O)[C@H](CCCCN)NC(=O)[C@H](Cc1ccccc1)NC(=O)[C@H](Cc1ccccc1)NC(=O)[C@H](CCCCN)NC(=O)[C@H](CCCCN)NC(=O)[C@H](C)NC(=O)[C@H](CCCNC(=N)N)NC(=O)[C@H](CCCCN)NC(=O)[C@H](CCCCN)NC(=O)[C@@H](NC(=O)[C@H](CO)NC(=O)[C@H](CC(N)=O)NC(=O)[C@H](CCCCN)NC(=O)[C@H](CC(C)C)NC(=O)[C@H](CCCCN)NC(=O)[C@H](CCCCN)NC(=O)[C@H](Cc1ccccc1)NC(=O)[C@H](Cc1ccccc1)NC(=O)[C@H](CCCCN)NC(=O)[C@H](CCCCN)NC(=O)[C@H](Cc1ccccc1)NC(=O)[C@H](CCCNC(=N)N)NC(=O)[C@@H](N)CCCCN)C(C)C)C(C)C)C(=O)NCC(=O)N[C@H](C(=O)N[C@H](C(=O)N[C@@H](Cc1ccccc1)C(=O)N1CCC[C@H]1C(=O)N[C@@H](Cc1ccccc1)C(=O)O)[C@@H](C)O)C(C)C [NA-CATH, reference compound]
Percent alpha-helicity, 10 mM phosphate buffer ([1]; 10 mM phosphate buffer): 3.4%
Percent alpha-helicity, SDS ([1]; 60 mM SDS in 10 mM phosphate buffer): 55.6%
Percent alpha-helicity, TFE ([1]; 50% TFE in 10 mM phosphate buffer): 63.5%
MIC [2]: 8 mg/L (≈ 1.92 µM)
